Laboratory results reported in paper PMC3828267 (PLoS ONE, 2013).

By UniProt entry, the sequences of proteins in these tests, tags left out. Residues count along the entry.
UniProt P17787, 26-502: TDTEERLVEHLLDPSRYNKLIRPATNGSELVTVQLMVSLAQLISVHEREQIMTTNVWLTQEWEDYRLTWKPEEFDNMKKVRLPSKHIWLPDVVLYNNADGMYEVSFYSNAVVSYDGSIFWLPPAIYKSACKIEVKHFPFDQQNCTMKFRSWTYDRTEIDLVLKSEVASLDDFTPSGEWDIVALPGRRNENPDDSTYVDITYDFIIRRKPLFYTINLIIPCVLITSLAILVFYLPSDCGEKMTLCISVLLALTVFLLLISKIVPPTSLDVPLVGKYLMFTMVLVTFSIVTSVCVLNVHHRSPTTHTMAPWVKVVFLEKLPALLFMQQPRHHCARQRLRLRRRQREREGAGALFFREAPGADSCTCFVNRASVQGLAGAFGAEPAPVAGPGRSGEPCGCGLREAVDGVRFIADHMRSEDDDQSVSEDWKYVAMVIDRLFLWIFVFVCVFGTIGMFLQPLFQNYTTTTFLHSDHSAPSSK
UniProt P43681, 29-627: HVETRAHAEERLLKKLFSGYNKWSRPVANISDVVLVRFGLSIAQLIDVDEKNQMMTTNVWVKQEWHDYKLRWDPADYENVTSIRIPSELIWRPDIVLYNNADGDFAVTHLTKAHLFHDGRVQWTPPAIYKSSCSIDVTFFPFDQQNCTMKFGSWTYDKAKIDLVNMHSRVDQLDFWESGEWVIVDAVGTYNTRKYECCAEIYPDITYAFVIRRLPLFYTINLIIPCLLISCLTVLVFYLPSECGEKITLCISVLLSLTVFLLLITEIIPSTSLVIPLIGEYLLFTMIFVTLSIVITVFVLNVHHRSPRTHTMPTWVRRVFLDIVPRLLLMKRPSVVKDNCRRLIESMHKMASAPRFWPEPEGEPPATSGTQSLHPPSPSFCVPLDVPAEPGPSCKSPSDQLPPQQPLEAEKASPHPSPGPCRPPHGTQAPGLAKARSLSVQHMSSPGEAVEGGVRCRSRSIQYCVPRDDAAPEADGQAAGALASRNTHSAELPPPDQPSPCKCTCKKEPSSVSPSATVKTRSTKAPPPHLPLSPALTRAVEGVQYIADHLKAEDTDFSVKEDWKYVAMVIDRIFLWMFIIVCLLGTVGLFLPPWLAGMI

Target: T1, α4β2 AChRs (Homo sapiens, UniProt P17787+P43681)
T1 construct: expressed in transfected cells
Assay: Smoldering activation following acute desensitization, α4β2
Type: cell-based
Details: α4β2, antagonist 1 µM applied after 10 minutes

Q: `CO[C@H]1CC=C2CCN3CCC4=C(CC(=O)OC4)[C@]23C1` [DHβE, dihydroβerythroidine] was tested. Which “Effect of antagonist on sustained agonist response” value did it give?
A: The value was “abrogated”.
